Reference: patent publication US5298499A, “S-2-(substituted ethylamino)ethyl phosphorothioates” (Research Triangle Institute, priority 1991, dated 1994)

Experiments:
mice [1] = conditions: intraperitoneal
mice [2] = assay: Radiation-protective evaluation in mice, 30-day survival after lethal irradiation; conditions: for 30-Day Survival: 30 min before 9.5 GY

SMILES: CC(C)(C)NC(=O)CCNCCSP(=O)(O)O
- Approximate LD50 (mice [1]): > 300 mg/kg
- 30-Day Survival (mice [2]; 75 mg/kg i.p.): 40%
- 30-Day Survival (mice [2]; 150 mg/kg i.p.): 60%
- 30-Day Survival (mice [2]; 300 mg/kg i.p.): 80%
- protection at the highest dose tested (mice [2]; highest dose tested): 80%
